From patent EP0418591B1 (priority 1989, dated 1991)

Test system: morphine stimulus
Test: Discriminative stimulus assay (morphine vs water, two-lever operant test)
Settings: 3.0 mg/kg s.c. training dose, 30 min before session

Compound: CN1CC[C@]23c4c5ccc(O)c4O[C@H]2[C@@H](O)C=C[C@H]3[C@H]1C5
- Mean Percent Morphine-Lever Responding (lower part of the table ((+)-Etorphine series)): 100.00%
- Mean Percent Morphine-Lever Responding (upper part of the table ((-)-Etorphine series)): 99.96%
